Data on 1 substance can be found in paper PMC11906898 (Nature Communications, 2025).

Usually EC50 stands for the concentration at which the effect is half-maximal.

The test deals with human δOR β-arrestin2 (Homo sapiens, UniProt P41143). The test is classed as cell-based.

In the case of TAN67, the “β-arr2 Emax ± SEM” value was 26 ± 3%. Besides, where the note is “read-out: β-arr2 EC50”, the EC50 was determined as 1.1 nM.
